Data reported in PubChem BioAssay (NCI).
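Test compounds were applied to cells in 96-well plates for 48 hours at 5 doses. Abbreviation: GI50, concentration required for 50% inhibition of growth. Definition used: TGI = concentration required for complete inhibition of growth.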

Tests used:
Assay in all cases: NCI-60 cell line screen, 48 h
[1] = system: 786-0 renal
[2] = system: A498 renal
[3] = system: A549 NSCLC
[4] = system: ACHN renal
[5] = system: BT-549 breast
[6] = system: CAKI-1 renal
[7] = system: CCRF-CEM leukemia
[8] = system: COLO 205 colon
[9] = system: DU-145 prostate
[10] = system: EKVX NSCLC
[11] = system: HCT-116 colon
[12] = system: HCT-15 colon
[13] = system: HL-60(TB) leukemia
[14] = system: HOP-62 NSCLC
[15] = system: HOP-92 NSCLC
[16] = system: HS 578T breast
[17] = system: HT29 colon
[18] = system: IGROV1 ovarian
[19] = system: K-562 leukemia
[20] = system: KM12 colon
[21] = system: LOX IMVI melanoma
[22] = system: M14 melanoma
[23] = system: MALME-3M melanoma
[24] = system: MCF7 breast
[25] = system: MDA-MB-231 breast
[26] = system: MDA-MB-435
[27] = system: MDA-N
[28] = system: MOLT-4 leukemia
[29] = system: NCI-H23 lung
[30] = system: NCI-H322M lung
[31] = system: NCI-H460 lung
[32] = system: NCI-H522 lung
[33] = system: NCI/ADR-RES ovarian
[34] = system: OVCAR-3 ovarian
[35] = system: OVCAR-4 ovarian
[36] = system: OVCAR-5 ovarian
[37] = system: OVCAR-8 ovarian
[38] = system: PC-3 prostate
[39] = system: RPMI-8226 leukemia
[40] = system: RXF 393 renal
[41] = system: SF-268 CNS
[42] = system: SF-295 CNS
[43] = system: SF-539 CNS
[44] = system: SK-MEL-2 melanoma
[45] = system: SK-MEL-28 melanoma
[46] = system: SK-MEL-5 melanoma
[47] = system: SK-OV-3 ovarian
[48] = system: SN12C renal
[49] = system: SNB-19 CNS
[50] = system: SNB-75 CNS
[51] = system: SR leukemia
[52] = system: SW-620 colon
[53] = system: T-47D breast
[54] = system: TK-10 renal
[55] = system: U251 CNS
[56] = system: UACC-257 melanoma
[57] = system: UACC-62 melanoma
[58] = system: UO-31 renal

Structure (SMILES): COc1ccc([N+](=O)[O-])c(C[N+](C)(CCCl)CCCl)c1
- TGI [1]: > 100 µM
- TGI [2]: > 100 µM
- TGI [3]: > 100 µM
- TGI [4]: > 100 µM
- TGI [5]: > 100 µM
- GI50 [6]: 33.1 µM
- TGI [6]: > 100 µM
- TGI [7]: > 100 µM
- TGI [8]: > 100 µM
- TGI [9]: > 100 µM
- TGI [10]: > 100 µM
- TGI [11]: > 100 µM
- TGI [12]: > 100 µM
- TGI [13]: > 100 µM
- TGI [14]: > 100 µM
- TGI [15]: > 100 µM
- TGI [16]: > 100 µM
- TGI [17]: > 100 µM
- TGI [18]: > 100 µM
- TGI [19]: > 100 µM
- TGI [20]: > 100 µM
- TGI [21]: > 100 µM
- TGI [22]: > 100 µM
- TGI [23]: > 100 µM
- TGI [24]: > 100 µM
- TGI [25]: > 100 µM
- TGI [26]: > 100 µM
- TGI [27]: > 100 µM
- GI50 [28]: 69.1 µM
- TGI [28]: > 100 µM
- TGI [29]: > 100 µM
- TGI [30]: > 100 µM
- TGI [31]: > 100 µM
- TGI [32]: > 100 µM
- TGI [33]: > 100 µM
- TGI [34]: > 100 µM
- TGI [35]: > 100 µM
- TGI [36]: > 100 µM
- TGI [37]: > 100 µM
- TGI [38]: > 100 µM
- TGI [39]: > 100 µM
- TGI [40]: > 100 µM
- TGI [41]: > 100 µM
- TGI [42]: > 100 µM
- TGI [43]: > 100 µM
- TGI [44]: > 100 µM
- TGI [45]: > 100 µM
- TGI [46]: > 100 µM
- TGI [47]: > 100 µM
- TGI [48]: > 100 µM
- TGI [49]: > 100 µM
- TGI [50]: > 100 µM
- GI50 [51]: 5.71 µM
- TGI [51]: > 100 µM
- TGI [52]: > 100 µM
- TGI [53]: > 100 µM
- TGI [54]: > 100 µM
- TGI [55]: > 100 µM
- TGI [56]: > 100 µM
- TGI [57]: > 100 µM
- TGI [58]: > 100 µM
